The test concerns the target 3H-Diazepam binding, rat brain cortical fragments. The experiment in a line: 3H-Diazepam Binding Assay. The following applies: Tris buffer, assayed in triplicate, read-out: IC50 (nM), concentration required to inhibit binding by 50%. As to the method: Brief-Description: Rat brain cortical fragments are prepared and the binding procedures performed as described by Mohler and Okada (Life Sciences, 20, 2101, 1977) except that Tris buffer is substituted for Krebs buffer. Drugs are assayed in triplicate.
Measurements Made: Radioactivity is measured by liquid scintillation counting.

In the case of `CN1C(=O)CN=C(c2ccccc2F)c2cc([N+](=O)[O-])ccc21` [Flunitrazepam], the IC50 worked out at 1.8 nM.
